Legend:
Assay type in all cases: in vivo
[1] = Pharmacokinetics in tumor free Balb/C mice; conditions: single injection 20 mg/kg; analyte intact conjugate
Procedure: Tumor free Balb/C mice were injected with a single injection of 20 mg/kg 4armPEG-Gly-(7-ethyl-10-hydroxycamptothecin) conjugates. At various time points mice were sacrificed and plasma was analyzed for intact conjugates and released 7-ethyl-10-hydroxycamptothecin by HPLC. Pharmacokinetic analysis was done using non-compartmental analysis (WinNonlin).

[2] = Pharmacokinetics in rats; conditions: parent compound
Procedure: Additionally, pharmacokinetic profiles of 4arm PEG-Gly-(7-ethyl-10-hydroxycamptothecin) were investigated in rats. In rats, does levels of 3, 10 and 30 mg/kg (7-ethyl-10-hydroxycamptothecin equivalent) were used. The pharmacokinetic profiles in rats were consistent with those of mice.
Enterohepatic circulation of released 7-ethyl-10-hydroxycamptothecin was observed both in mice and rats.

[3] = Maximum tolerated dose (MTD) in nude mice

## ^40k4arm-PEG-Gly(20)-(7-ethyl-10-hydroxycamptothecin) [Compound 9]
[1]
  Cmax: 20,500 μg/mL
  Terminal t1/2: 19.3 h
  Vss: 0.131 L/kg
[2]
  clearance: 8.4 mL/day/kg
[2]; estimated
  volume of distribution at steady state (Vss): 0.00549 L/kg
[3]; multiple dose (q2d×5)
  MTD: 10 mg/kg
[3]; single dose
  MTD: 30 mg/kg

Source: patent US8299089B2, “Multi-arm polymeric conjugates of 7-ethyl-10-hydroxycamptothecin for treatment of breast, colorectal, pancreatic, ovarian and lung cancers” (priority 2006, dated 2012)
